# Measurements as given in patent US10624891B2, “Method of diagnosing and treating skin necroptosis disease comprising RIP3-MLKL pathway blocker” (Ajou University Industry-Academic Cooperation Foundation, priority 2015, dated 2020).
# Columns and labels:
# [1] = tested on: HaCaT and HEKn cells expressing RIP3; assay: SNP treatment of HaCaT and HEKn cells, MTT assay and western blotting
# HEKn cells = assay: Necroptosis inhibition: protection of HEKn cells from SNP cytotoxicity
substance,measurement,setting,value
zVAD,caspase-3 and PARP cleavage induced by TNF/CHX and SNP,[1],completely blocked
same,SNP-induced cell death,[1]; pan-caspase inhibitor zVAD,did not significantly affect
same,protection from acute SNP cytotoxicity / SNP-induced cell death,HEKn cells,inhibited partially
